The source of these data is article PMC7060366.

The chains behind the UniProt entries cited, without tags or fusion partners. Where a name states a change or a piece, a line headed by the entry shows the natural chain unless it says otherwise.
UniProt P33534: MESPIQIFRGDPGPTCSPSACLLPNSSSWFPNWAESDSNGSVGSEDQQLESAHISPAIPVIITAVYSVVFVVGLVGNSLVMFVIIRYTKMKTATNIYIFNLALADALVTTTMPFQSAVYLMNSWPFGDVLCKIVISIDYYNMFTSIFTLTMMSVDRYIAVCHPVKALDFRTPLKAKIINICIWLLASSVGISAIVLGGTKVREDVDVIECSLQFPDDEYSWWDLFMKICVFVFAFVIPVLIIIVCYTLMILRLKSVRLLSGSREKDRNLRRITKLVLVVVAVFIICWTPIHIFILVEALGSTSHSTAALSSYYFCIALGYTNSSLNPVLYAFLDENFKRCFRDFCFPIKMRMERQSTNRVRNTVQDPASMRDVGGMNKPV
UniProt P32300, whole entry, looked up: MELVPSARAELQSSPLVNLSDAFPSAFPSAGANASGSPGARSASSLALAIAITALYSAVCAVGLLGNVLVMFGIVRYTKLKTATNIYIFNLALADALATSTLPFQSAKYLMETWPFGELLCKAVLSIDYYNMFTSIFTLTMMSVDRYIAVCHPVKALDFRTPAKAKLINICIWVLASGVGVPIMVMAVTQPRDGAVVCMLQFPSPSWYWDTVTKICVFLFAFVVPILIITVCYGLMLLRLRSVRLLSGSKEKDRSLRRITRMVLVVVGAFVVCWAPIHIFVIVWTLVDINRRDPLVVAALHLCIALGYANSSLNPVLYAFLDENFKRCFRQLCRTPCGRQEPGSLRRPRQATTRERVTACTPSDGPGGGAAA
UniProt P41145: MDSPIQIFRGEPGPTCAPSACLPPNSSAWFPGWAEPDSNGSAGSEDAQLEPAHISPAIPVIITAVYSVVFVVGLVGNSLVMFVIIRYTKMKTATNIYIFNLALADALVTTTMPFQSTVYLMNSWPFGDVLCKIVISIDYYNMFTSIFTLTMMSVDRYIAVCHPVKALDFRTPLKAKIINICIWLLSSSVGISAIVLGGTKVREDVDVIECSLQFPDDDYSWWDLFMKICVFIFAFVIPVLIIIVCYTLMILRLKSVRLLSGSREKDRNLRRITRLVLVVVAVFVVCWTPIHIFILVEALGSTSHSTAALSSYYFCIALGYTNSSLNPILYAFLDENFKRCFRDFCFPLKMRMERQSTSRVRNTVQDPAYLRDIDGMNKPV
UniProt P42866, whole entry, looked up: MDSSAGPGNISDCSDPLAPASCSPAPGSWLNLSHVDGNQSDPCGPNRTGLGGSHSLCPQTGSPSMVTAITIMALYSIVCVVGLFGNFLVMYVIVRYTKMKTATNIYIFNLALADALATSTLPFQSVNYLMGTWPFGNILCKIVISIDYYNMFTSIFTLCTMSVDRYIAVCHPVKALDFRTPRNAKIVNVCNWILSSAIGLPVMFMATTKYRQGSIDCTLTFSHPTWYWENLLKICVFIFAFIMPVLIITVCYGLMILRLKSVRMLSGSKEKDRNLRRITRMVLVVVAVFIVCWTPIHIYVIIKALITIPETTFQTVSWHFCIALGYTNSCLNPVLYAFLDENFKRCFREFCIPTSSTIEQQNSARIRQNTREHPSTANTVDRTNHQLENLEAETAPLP

For one data set, the system named is δOP. Particulars: read-out: (Ki) affinity for δOP; ref Varadi et al., 2016; cited from earlier work.
Data set [1] concerns C57BL/6 mice. In words: Two‐bottle choice model of moderate 10% alcohol consumption.
The next data set addresses human δOP (Homo sapiens, UniProt P41143). Briefly: PathHunter β‐arrestin 2 recruitment in CHO‐K1 cells. To be noted: for β‐arrestin 2 α (efficacy): normalized to leu‐enkephalin, ±SEM, ND = not detectable.
Another data set deals with mouse κOP (Mus musculus, UniProt P33534). Briefly: cAMP inhibition (GloSensor, forskolin-stimulated) in HEK 293 cells. Particulars: for cAMP pIC50: κOR section, HEK293 expressing mouse κOP, ±SEM.
Another data set has as its target mouse δOP (Mus musculus, UniProt P32300). The description is as above. Particulars: for LogR (tau/Ka) cAMP: δOP, operational model; for cAMP pIC50: δOR section, HEK293 expressing mouse δOP, ±SEM.
The subject of another data set is μOP. Particulars: read-out: (Ki) affinity for μOP; ref Varadi et al., 2016; cited from earlier work.
For data set [2], the system named is C57BL/6 mice. In words: General locomotor activity assessment.
The target of a further data set is human κOP (Homo sapiens, UniProt P41145). In words: PathHunter β‐arrestin 2 recruitment in U2OS cells.
The target in a further data set is mouse μOP (Mus musculus, UniProt P42866). In words: cAMP inhibition (GloSensor, forskolin-stimulated) in HEK 293 cells. To be noted: for LogR (tau/Ka) cAMP: µOP, operational model.
The subject of data set [3] is C57BL/6 mice. In words: Brief conditioned place preference. Particulars: male mice.
The test system of the next data set is C57BL/6 wild‐type mice. Briefly: Acute thermal antinociception (tail‐flick assay).
In data set [4] the test system is C57BL/6 mice. Briefly: Extended conditioned place preference. To be noted: male mice.
[5] abbreviates: male wild‐type mice, 3 mg·kg^−1 i.p., vs vehicle.
[6] abbreviates: male wild‐type mice, 10 mg·kg^−1 i.p., vs vehicle.
Where [7] appears, read: male wild‐type mice, 30 mg·kg^−1 i.p., vs vehicle.
Setting [8] is: male wild‐type mice, 30 mg·kg^−1 i.p., 90 min, vs vehicle.

As a reminder, the Ki is a dissociation constant, usually derived from enzyme kinetics or from competition with a known ligand. In the case of `CC[C@@H]1CN2CC[C@@]3(O)C(=Nc4cccc(OC)c43)[C@@H]2C[C@@H]1/C(=C\OC)C(=O)OC` [listing 1 of 2 here], the Ki in the data set on δOP was 91 nM; with μOP, 37 nM. For the same compound, the “Effect on 10% alcohol intake” value is on record as “significantly decreased alcohol intake” in the data set with C57BL/6 mice [1] (female wild‐type mice, 3 mg·kg^−1 i.p.); “decrease in alcohol intake was observed” with C57BL/6 mice [1] (setting [5]); “decrease in alcohol intake was observed” in the data set with C57BL/6 mice [1] (setting [6]); “did not observe changes” with C57BL/6 mice [1] (male δOP knockout mice, 3 mg·kg^−1 i.p., vs vehicle); “did not observe changes” in the data set on C57BL/6 mice [1] (male δOP knockout mice, 10 mg·kg^−1 i.p., vs vehicle). In addition, the “β‐arrestin 2 α (efficacy)” value at human δOP is given as 14 ± 1%. Moreover, the cAMP pIC50 on mouse κOP was 6.2 ). Also, the “LogR (tau/Ka) cAMP” value on mouse δOP came to 4.841.
For `CC[C@H]1CN2CCc3c([nH]c4cccc(OC)c34)[C@@H]2C[C@@H]1/C(=C\OC)C(=O)OC` [listing 1 of 2 here], in the data set on C57BL/6 mice [1] (setting [7]), the “Effect on 10% alcohol intake” value is “decreased alcohol intake”.
As to `CC[C@H]1CN2CCc3c([nH]c4cccc(OC)c34)[C@@H]2C[C@@H]1/C(=C\OC)C(=O)OC` [listing 2 of 2 here], in the data set with C57BL/6 mice [2] (setting [8]), the “Effect on locomotor activity” value was “significantly decreased locomotion”.
On to `CN(C(=O)Cc1ccc(Cl)c(Cl)c1)[C@@H]1CCCC[C@H]1N1CCCC1`, for which, on human κOP (normalized to U50,488, ±SEM, ND = not detectable), the “β‐arrestin 2 α (efficacy)” value is listed as 100%. The “LogR (tau/Ka) β-arrestin 2” value on human κOP (κOP, operational model) stood at 6.947. Also, on mouse κOP (κOP, operational model), the “LogR (tau/Ka) cAMP” value came out at 8.649.
As for `C=CC1CN2CCc3c([nH]c4cccc(OC)c34)C2CC1C(=COC)C(=O)OC` (centres unmarked), the “Effect on locomotor activity” value in the data set on C57BL/6 mice [2] (male wild‐type mice, 10 mg·kg^−1 i.p., 90 min, vs vehicle) is reported as “did not significantly alter locomotion”. For the same compound, the “Effect on 10% alcohol intake” value in the data set with C57BL/6 mice [1] (setting [6]) and in the data set on C57BL/6 mice [1] (setting [7]) was “dose‐dependently decreased” throughout. In addition, the “LogR (tau/Ka) cAMP” value on mouse μOP is recorded as 7.355; at mouse δOP, 5.535. For the same compound, the cAMP pIC50 on mouse μOP (μOR section, HEK293 expressing mouse μOP, ±SEM) was 5.4 ); on mouse κOP, 5.3 ); on mouse δOP it was 5.6 ).
`CC[C@@H]1CN2CCc3c([nH]c4cccc(OC)c34)[C@@H]2C[C@@H]1/C(=C\OC)C(=O)OC`: the “Effect on locomotor activity” value in the data set on C57BL/6 mice [2] (setting [8]) was “increased locomotor activity, although only the increase induced by 7‐hydroxymitragynine was significant”. Further, the “Effect on 10% alcohol intake” value was “significantly decreased” in the data set with C57BL/6 mice [1] (setting [7]) and “significantly decreased” in the data set on C57BL/6 mice [1] (male wild‐type mice, 100 mg·kg^−1 i.p., vs vehicle). Further, the “LogR (tau/Ka) cAMP” value on mouse δOP is 4.393.
Take `CC(C)C[C@H](NC(=O)[C@H](Cc1ccccc1)NC(=O)CNC(=O)CNC(=O)[C@@H](N)Cc1ccc(O)cc1)C(=O)O`: the “β‐arrestin 2 α (efficacy)” value at human δOP is given as 100%. In addition, the “LogR (tau/Ka) β-arrestin 2” value on human δOP (δOP, operational model) is 8.164. Also, the “LogR (tau/Ka) cAMP” value on mouse δOP turned out to be 8.028.
Turning to `CN1CC[C@]23c4c5ccc(O)c4O[C@H]2[C@@H](O)C=C[C@H]3[C@H]1C5`, in the data set on C57BL/6 mice [3] (6 mg·kg^−1, two conditioning sessions), the “Conditioned place preference (time on drug‐paired side), brief CPP” value was “produced significant place preference”. Also, in the data set with C57BL/6 wild‐type mice (10 mg·kg^−1, two mice, internal control, data not shown), the “Antinociception (%MPE) in tail‐flick assay” value is 100%. Also, the “Conditioned place preference, extended CPP” value in the data set on C57BL/6 mice [4] (6 mg·kg^−1, four conditioning sessions) is “place preference was established”.
Consider `CC[C@@H]1CN2CC[C@@]3(O)C(=Nc4cccc(OC)c43)[C@@H]2C[C@@H]1/C(=C\OC)C(=O)OC` [listing 2 of 2 here], for which the “Effect on locomotor activity” value in the data set on C57BL/6 mice [2] (female mice, 3 mg·kg^−1 i.p.) is on record as “increased locomotor activity”; in the data set on C57BL/6 mice [2] (male wild‐type mice, 3 mg·kg^−1 i.p., 90 min, vs vehicle), “increased locomotor activity”; in the data set with C57BL/6 mice [2] (male δOP knockout mice, 3 mg·kg^−1 i.p., vs controls), “significantly increased locomotor activity”. For the same compound, the “Conditioned place preference (time on drug‐paired side), brief CPP” value in the data set with C57BL/6 mice [3] (3 mg·kg^−1, two conditioning sessions) was “did not produce statistically significant increases”; in the data set on C57BL/6 mice [3] (10 mg·kg^−1, two conditioning sessions), “did not produce statistically significant increases”. Also, the “Conditioned place preference, extended CPP” value in the data set on C57BL/6 mice [4] (3 mg·kg^−1, four conditioning sessions) is “place preference was established”.
Regarding `Oc1ccc2c3c1O[C@H]1c4[nH]c5ccccc5c4C[C@@]4(O)[C@@H](C2)N(CC2CC2)CC[C@]314`, the “Effect on 7‐hydroxymitragynine‐induced inhibition of cAMP production” value at mouse δOP (HEK293 expressing δOP, pre-incubated with 100 nM naltrindole for 10 minutes) was “attenuated”.
Regarding `COc1ccsc1CNCC[C@@]1(c2ccccn2)CCOC2(CCCC2)C1`, the “Effect on 10% alcohol intake” value in the data set on C57BL/6 mice [1] (male wild‐type mice, 1 mg·kg^−1 i.p., vs vehicle) is listed as “failed to decrease”; in the data set on C57BL/6 mice [1] (setting [5]), “failed to decrease”. Further, in the data set on C57BL/6 wild‐type mice (male WT C57BL/6 mice, 1, 3 and 10 mg/kg s.c., 30 minutes post injection), the “Antinociception in tail-flick assay” value is “produced antinociception”. Besides, the “LogR (tau/Ka) cAMP” value was determined as 7.559 on mouse μOP and 3.954 at mouse δOP. Moreover, the cAMP pIC50 on mouse κOP is 4.9 ); at mouse δOP, 5.6 ).
